The values below come from patent US20230035491A1, “METHODS, KITS AND COMPOSITIONS FOR REDUCING CARDIOTOXICITY ASSOCIATED WITH CANCER THERAPIES” (Baruch S. Blumberg Institute, priority 2019, published 2023).

The subject of data set [1] is cardiac progenitor iPSCs. In words: Cell death of cardiac precursor iPSCs with saline or DOX and maraviroc, propidium iodide. It counts as cell-based. The settings on record: maraviroc alone (0-100 m), 24 hours. An excerpt: (mean+/−SD, n=3). […] Data represents mean+/−SD (n=3).
The nature of data set [2]: Chronic maraviroc, cardiac function by echocardiography. As to conditions: maraviroc 16 mg/kg twice daily gavage, 9 months, n=3, vs vehicle. It counts as in vivo, mice. How it is done:
Mice (n=3) were treated for 9 months with maraviroc (16 mg/kg, twice daily gavage) or vehicle. At the end of 9 months, measurements of cardiac function were made using echocardiography with the Vevo 770 preclinical high frequency ultrasound system (Visualsonics). M-mode analysis of the resulting images provided indices of cardiac systolic and diastolic function. In FIG. 12a, function indices of myocardial anatomy were assessed including thickness of the left ventricular free wall (LVFW) and posterior wall (LVPW) at the end of cardiac function (systole) and relaxation (diastole). Measurements are of wall thickness in mm. Within FIG. 12b, cardiac function was assessed using echocardiography. Indices include stroke volume (Stroke V) which is the volume expelled from the left ventricular upon each cardiac contraction (μL), ejection fraction (EF) which is the percentage of the left ventricular volume expelled with each cardiac contraction (%), fractional shortening (FS) which is the proportion of diastolic dimension lost in systole (%), and cardiac output (CO) which is the total cardiac output per minute (stroke volume×heart rate)(ml/min). Data represent the vehicle (water with 5% (v/v) DMSO and 1% (v/v) 1N HCL) control (solid border) and maraviroc treated mice (non-solid border).

A short description of data set [3]: Immunostaining of myocardium after chronic maraviroc (CD31, ARC, Bcl2, Activated Caspase 3). It counts as in vivo, mice. The settings on record: maraviroc 16 mg/kg twice daily gavage, 9 months, n=3 per group. How it is done: After 9 months hearts were excised and fixed overnight in paraformaldehyde. Fixed tissues were embedded in paraffin blocks and sectioned (5 mm) in preparation for immunostaining. After deparaffinization and rehydration, antigen retrieval was performed in Tris buffer (pH 9) on the resulting sections. After blocking sections were incubated with an antibodies to assess vascularity (CD31) and myocardial health (ARC, Bcl2, Activated Caspase 3). Antibody binding was visualized using an HRP-conjugated second antibody and Nova red substrate. Haematoxylin was used for nuclear visualization.

As for maraviroc, the “viability of cardiac progenitor iPSCs” value in data set [1] is “no significant effect”. The “cardiac function (wall thickness, stroke volume, EF, FS, CO)” value in data set [2] is listed as “do not affect murine cardiac function”. Moreover, in data set [3], the “cardiac myocyte health (ARC, Bcl2, Activated Caspase 3)” value is reported as “nor did chronic maraviroc consumption significantly impact cardiac myocyte health” and the “vascularity of the myocardium (CD31)” value was “did not change the vascularity”.
